According to patent US10668061B2, “Mouse with D4R iRNA in the intercalating cell mass of the amygdala” (POSTECH ACADEMY-INDUSTRY FOUNDATION, priority 2016, dated 2020):

Tested on: dorsal ITC neurons
Experiment: STDP-induced DA-dependent LTD (DA-LTD) in dorsal ITC neurons, amygdala slice whole-cell recordings
Type: cell-based, mice
Description: To compare mPSCs without or after STDP, KCl-based and K-gluconate-based internal solutions were used for recording mIPSCs and mEPSCs, respectively. K-gluconate based solution was also used to record EPSCs and IPSCs evoked by interleaved stimulation. Series resistance (10-30 MΩ) was monitored throughout all experiments. mEPSCs were recorded at −70 mV holding potential in the presence of 1 μM tetrodotoxin (TTX) and 100 μM picrotoxin (Tocris, UK) while mIPSCs were measured at −70 mV in the presence of 1 μM TTX, 25 μM NBQX, and 50 μM 2-amino-5-phosphonovaleric acid (APV, Tocris). Miniature PSCs were analyzed with MiniAnalysis (Synaptosoft, Fort Lee, N.J.) or Clampfit 10.1 software (Molecular Devices). For PSC recordings with interleaved stimulation, the holding potential was briefly (˜40 ms) changed from −70 mV to +10 mV to reach the reversal potential of EPSC for isolation of putative IPSCs. For STDP experiments, stimulus intensity was adjusted to elicit EPSPs displaying 25%-30% of the maximum amplitudes. After obtaining stable baseline recording, 80 presynaptic stimuli were delivered at 2 Hz via metal stimulating electrode placed in LA while paired with action potentials induced by injection of depolarizing current to postsynaptic neurons. Quantal contents were estimated by obtaining the inverse square of the coefficient of variation (1/CV^2). […]. […]

CCCN1CCC[C@@H]2Cc3n[nH]cc3C[C@H]21 [quinpirole]
induction of LTD at the dorsal ITC by receptor agonist: did not
